# Measured affinities in a library of Ab-95 light chain variants

Values reported by Engelhart et al. 2022, doi:10.1038/s41597-022-01779-4 (FLAb copy).

The target is the same throughout: PDVDLGDISGINAS, from the HR2 region of SARS-CoV-2 spike.

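Phage display of a naive human antibody library on the peptide gave the parent. Variants in AAYL52 differ from the parent at up to three CDR positions; double and triple changes were sampled at random. The assay is AlphaSeq: two haploid yeast populations carry antibody and antigen on their surface. Binding brings cells together so that they mate, and sequencing counts the barcode pairs among the diploids. Each replicate has its own calibration line, from reference interactions of the BCL2 family. The assay was run in three technical replicates.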

Each scFv is VH, a (GGGGS)3 linker, VL, as in the parent Ab-95, and differs from it in the CDRs of the light chain only.
VH: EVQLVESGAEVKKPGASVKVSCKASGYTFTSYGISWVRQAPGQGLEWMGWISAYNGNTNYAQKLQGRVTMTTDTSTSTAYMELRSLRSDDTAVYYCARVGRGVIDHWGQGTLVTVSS
VL: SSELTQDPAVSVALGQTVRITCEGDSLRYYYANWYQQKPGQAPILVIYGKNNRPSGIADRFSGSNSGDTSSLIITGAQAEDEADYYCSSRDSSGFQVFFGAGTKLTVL

Substitutions are numbered in sequence along the VL above, starting at 1 (not Kabat). Every variant below is changed at G94 of the VL (sequential numbering). Kd is apparent (estimated from mating counts) and averaged on the log scale over replicates with a signal. Smaller is tighter. "no signal" marks a missing value. The strain was present, yet no cells mated with the target were sequenced in any replicate, which points to weak or no binding. Nonspecific signal, from three strains lacking the peptide, appeared in 28% of pairings of library AAYL52, centred on 8.2 µM (5% of these signals below 800 nM); values are not corrected for it.

With Y29F+S89N+G94F the result was 910 nM (3 of 3 replicates). For L27D+A32C+G94Q, the assay gave 14 µM (2 of 3 replicates). For D25H+N51Q+G94Q, the assay gave 20 µM (1 of 3 replicates). With G49S+G94W the result was 9.8 µM (2 of 3 replicates). Variant Y31R+R90F+G94L showed 710 nM (3 of 3 replicates). With K50Q+G94N+F98Q the result was 1.8 µM (1 of 3 replicates).

For S88A+S89Q+G94A, the assay gave 320 nM (3 of 3 replicates). Variant R28P+S89G+G94S showed 630 nM (3 of 3 replicates). For G94T+Q96V, the assay gave 460 nM (3 of 3 replicates). Variant R53M+G94A showed 4.6 µM (3 of 3 replicates). Variant R90Q+G94M+V97C gave no signal (0 of 3 replicates). With Y31P+G49A+G94V the result was 2.8 µM (3 of 3 replicates).

For E23N+S26H+G94M, the assay gave 17 µM (2 of 3 replicates). Variant K50F+S55F+G94C showed no signal (0 of 3 replicates). With S26L+K50V+G94Q the result was no signal (0 of 3 replicates). For P54K+S89P+G94V, the assay gave 9.6 µM (3 of 3 replicates). For Y29M+S55K+G94L, the assay gave 110 µM (1 of 3 replicates). Variant Y30V+G94W+F95W gave 92 nM (3 of 3 replicates).

Variant G24M+G94V+F95K showed 72 nM (3 of 3 replicates). With P54G+S55V+G94A the result was 1.1 µM (3 of 3 replicates). Variant Y30P+S93L+G94C showed 64 µM (1 of 3 replicates). With Y31D+G94K+V97M the result was no signal (0 of 3 replicates). For D25I+N51C+G94F, the assay gave 1.2 µM (1 of 3 replicates). For S26L+P54Y+G94E, the assay gave no signal (0 of 3 replicates).

For Y30W+G49M+G94K, the assay gave no signal (0 of 3 replicates). With N33K+S93N+G94V the result was 23 µM (1 of 3 replicates). Variant R53I+G94R+F98S gave 960 nM (3 of 3 replicates). For Y29R+R53I+G94A, the assay gave 8.9 µM (1 of 3 replicates). Variant L27E+Y30V+G94F showed 1.6 µM (2 of 3 replicates). Variant Y31K+G94F+V97F gave 390 nM (3 of 3 replicates).

For A32L+G94Y+F98A, the assay gave 3.9 µM (1 of 3 replicates). Variant R28V+G49H+G94K showed 11 µM (2 of 3 replicates). Variant S26Y+N33R+G94N showed 110 µM (3 of 3 replicates). Variant D91R+G94F+Q96V gave no signal (0 of 3 replicates). Variant S89V+G94N+F95P gave 170 nM (3 of 3 replicates). For S55K+G94K+Q96F, the assay gave 15 µM (1 of 3 replicates).

With N52H+G94R+V97H the result was no signal (0 of 3 replicates). For G49Q+S55W+G94T, the assay gave 2.6 µM (3 of 3 replicates). Variant E23R+S26L+G94Y showed 3.6 µM (2 of 3 replicates). Variant D25S+A32E+G94K showed no signal (0 of 3 replicates). For A32L+S55Y+G94Q, the assay gave 8.4 µM (1 of 3 replicates).